Measurements published in PMC7749003 (SLAS discovery : advancing life sciences R & D, 2020).

Experiment: stability of control compound in HTS source plates
Settings: source plates during HTS campaign

For `CCCCCCCCCCCCC/C=C/[C@@H](O)[C@H](CO)NC(=O)NCCCCCC` [C6 urea-ceramide, C6-Urea-Ceramide], which “time until loss of activity” value is on record?
Its value is “about 1 month”.
